These are literature values, as cited in patent publication US20040018253A1, “Use of CYP2D6 inhibitors in combination therapies” (priority 1999, published 2004).

This data set relates to CYP. To be noted: cited from earlier work.

Take hyperforin: the CYP inhibitory activity entry was “exhibit CYP inhibitory activity”.
